Results reported in ChEMBL document CHEMBL1151781, “Selectivity of inhibitors of endocannabinoid biosynthesis evaluated by activity-based protein profiling” (Bioorg Med Chem Lett, 2008).

Assays:
Assay type in all cases: tissue-based
[1] = molecular target: T1, Fatty-acid amide hydrolase 1 (Mus musculus) (UniProt O08914); test: Inhibition of FAAH in mouse brain at 0.01 to 100 uM treated for 30 mins by SDS-PAGE using rhodamine-tagged FP probe
T1 sequence (whole entry): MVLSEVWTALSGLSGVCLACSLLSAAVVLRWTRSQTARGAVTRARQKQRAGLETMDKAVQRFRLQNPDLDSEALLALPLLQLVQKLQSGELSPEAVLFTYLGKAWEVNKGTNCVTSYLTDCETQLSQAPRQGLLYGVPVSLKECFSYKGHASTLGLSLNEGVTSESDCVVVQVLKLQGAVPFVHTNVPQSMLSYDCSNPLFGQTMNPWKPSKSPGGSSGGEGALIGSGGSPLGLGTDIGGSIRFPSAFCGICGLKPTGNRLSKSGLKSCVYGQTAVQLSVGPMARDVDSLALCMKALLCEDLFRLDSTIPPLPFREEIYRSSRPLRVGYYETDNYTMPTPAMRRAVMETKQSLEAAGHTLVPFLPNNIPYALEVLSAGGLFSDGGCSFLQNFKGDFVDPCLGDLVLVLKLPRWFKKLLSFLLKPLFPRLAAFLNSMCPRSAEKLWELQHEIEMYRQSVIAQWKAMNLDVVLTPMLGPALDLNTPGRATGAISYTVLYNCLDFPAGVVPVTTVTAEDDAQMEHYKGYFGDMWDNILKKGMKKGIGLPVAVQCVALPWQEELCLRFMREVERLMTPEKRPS
Outline: (§1)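 Mouse brain membrane proteome preincubated with inhibitor across 0.01-100 μM for 30 min. A rhodamine-tagged fluorophosphonate probe (FP-Rh) was then added for 60 min. Samples were resolved by SDS-PAGE, and probe labeling of each hydrolase band was read by in-gel fluorescence scanning.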

[2] = molecular target: T2, Neutral cholesterol ester hydrolase 1 (Mus musculus) (UniProt Q8BLF1); test: Inhibition of KIAA1363 in mouse brain at 0.01 to 100 uM treated for 30 mins by SDS-PAGE using rhodamine-tagged FP probe; outline: as §1
T2 sequence (whole entry): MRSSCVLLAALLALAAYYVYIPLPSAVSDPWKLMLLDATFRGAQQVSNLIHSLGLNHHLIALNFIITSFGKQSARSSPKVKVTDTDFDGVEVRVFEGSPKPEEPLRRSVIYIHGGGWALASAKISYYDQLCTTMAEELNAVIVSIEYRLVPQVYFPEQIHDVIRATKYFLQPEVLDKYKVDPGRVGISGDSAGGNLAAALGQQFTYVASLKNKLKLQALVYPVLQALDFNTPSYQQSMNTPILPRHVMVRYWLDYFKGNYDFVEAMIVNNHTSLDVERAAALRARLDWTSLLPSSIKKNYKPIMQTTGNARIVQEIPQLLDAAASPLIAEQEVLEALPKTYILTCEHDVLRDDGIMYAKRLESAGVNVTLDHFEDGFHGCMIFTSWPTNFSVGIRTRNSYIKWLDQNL

[3] = molecular target: T3, Monoglyceride lipase (Mus musculus) (UniProt O35678); test: Inhibition of MAGL in mouse brain at 0.01 to 100 uM treated for 30 mins by SDS-PAGE using rhodamine-tagged FP probe; outline: as §1
T3 sequence (whole entry): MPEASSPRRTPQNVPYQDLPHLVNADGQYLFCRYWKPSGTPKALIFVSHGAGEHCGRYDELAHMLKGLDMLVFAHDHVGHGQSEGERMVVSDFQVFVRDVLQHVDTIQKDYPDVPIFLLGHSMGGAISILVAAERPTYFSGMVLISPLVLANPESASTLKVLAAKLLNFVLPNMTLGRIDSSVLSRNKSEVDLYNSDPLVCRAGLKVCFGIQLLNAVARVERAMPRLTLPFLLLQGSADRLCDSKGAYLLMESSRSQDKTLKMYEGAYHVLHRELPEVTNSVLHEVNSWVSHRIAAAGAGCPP

[4] = molecular target: T4, Monoacylglycerol lipase ABHD6 (Mus musculus) (UniProt Q8R2Y0); test: Inhibition of ABHD6 in mouse brain at 0.01 to 100 uM treated for 30 mins by SDS-PAGE using rhodamine-tagged FP probe; outline: as §1
T4 sequence (whole entry): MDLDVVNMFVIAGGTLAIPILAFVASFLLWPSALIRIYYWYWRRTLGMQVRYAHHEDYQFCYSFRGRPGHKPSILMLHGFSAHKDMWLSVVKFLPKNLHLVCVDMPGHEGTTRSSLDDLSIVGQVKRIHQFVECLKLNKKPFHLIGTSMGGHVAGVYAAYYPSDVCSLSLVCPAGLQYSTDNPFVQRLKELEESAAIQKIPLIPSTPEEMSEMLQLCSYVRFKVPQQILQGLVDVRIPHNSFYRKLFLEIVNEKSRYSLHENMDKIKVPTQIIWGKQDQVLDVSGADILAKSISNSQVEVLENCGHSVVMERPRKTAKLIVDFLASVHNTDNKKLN

[5] = molecular target: T5, Lysophosphatidylserine lipase ABHD12 (Mus musculus) (UniProt Q99LR1); test: Inhibition of ABHD12 in mouse brain at 0.01 to 100 uM treated for 30 mins by SDS-PAGE using rhodamine-tagged FP probe; outline: as §1
T5 sequence (whole entry): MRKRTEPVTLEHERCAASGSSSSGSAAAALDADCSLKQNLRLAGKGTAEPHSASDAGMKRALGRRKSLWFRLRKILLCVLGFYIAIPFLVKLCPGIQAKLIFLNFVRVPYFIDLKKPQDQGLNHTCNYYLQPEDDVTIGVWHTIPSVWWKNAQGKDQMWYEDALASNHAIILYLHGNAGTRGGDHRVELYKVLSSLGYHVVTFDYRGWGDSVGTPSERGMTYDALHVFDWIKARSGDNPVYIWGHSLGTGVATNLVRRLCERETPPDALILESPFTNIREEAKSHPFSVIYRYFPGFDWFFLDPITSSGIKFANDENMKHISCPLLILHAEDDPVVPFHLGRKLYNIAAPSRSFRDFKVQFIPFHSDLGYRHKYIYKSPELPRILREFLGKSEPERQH

[6] = molecular target: T6, Phosphatidylserine lipase ABHD16A (Mus musculus) (UniProt Q9Z1Q2); test: Inhibition of BAT5 in mouse brain at 0.01 to 100 uM treated for 30 mins by SDS-PAGE using rhodamine-tagged FP probe; outline: as §1
T6 sequence (whole entry): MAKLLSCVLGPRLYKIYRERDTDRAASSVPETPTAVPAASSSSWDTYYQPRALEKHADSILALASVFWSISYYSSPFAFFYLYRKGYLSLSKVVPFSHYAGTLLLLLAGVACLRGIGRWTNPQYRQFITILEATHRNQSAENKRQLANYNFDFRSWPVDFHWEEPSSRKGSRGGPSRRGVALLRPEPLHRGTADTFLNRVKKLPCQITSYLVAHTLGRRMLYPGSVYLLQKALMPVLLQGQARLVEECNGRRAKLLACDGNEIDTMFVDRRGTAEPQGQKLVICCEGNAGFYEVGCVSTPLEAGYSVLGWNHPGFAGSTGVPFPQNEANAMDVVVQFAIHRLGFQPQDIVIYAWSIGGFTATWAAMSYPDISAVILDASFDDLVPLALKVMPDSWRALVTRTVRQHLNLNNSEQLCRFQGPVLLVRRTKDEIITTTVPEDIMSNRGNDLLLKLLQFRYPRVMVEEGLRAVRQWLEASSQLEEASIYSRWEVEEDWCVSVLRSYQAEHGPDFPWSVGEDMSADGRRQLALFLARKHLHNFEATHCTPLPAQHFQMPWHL

Measured: Activity

CCCCCCCC/C=C\CCCCCCCC(=O)OC(COC)COP(C)(=O)F (stereo unspecified)
active: all assays above

Active and inactive are the calls of the source.
